Patent publication US20110223597A1 (priority 2010, published 2011)

Amino acid sequences for entries named in this document (tags omitted). Residues count along the entry.
UniProt P36537, 24-528: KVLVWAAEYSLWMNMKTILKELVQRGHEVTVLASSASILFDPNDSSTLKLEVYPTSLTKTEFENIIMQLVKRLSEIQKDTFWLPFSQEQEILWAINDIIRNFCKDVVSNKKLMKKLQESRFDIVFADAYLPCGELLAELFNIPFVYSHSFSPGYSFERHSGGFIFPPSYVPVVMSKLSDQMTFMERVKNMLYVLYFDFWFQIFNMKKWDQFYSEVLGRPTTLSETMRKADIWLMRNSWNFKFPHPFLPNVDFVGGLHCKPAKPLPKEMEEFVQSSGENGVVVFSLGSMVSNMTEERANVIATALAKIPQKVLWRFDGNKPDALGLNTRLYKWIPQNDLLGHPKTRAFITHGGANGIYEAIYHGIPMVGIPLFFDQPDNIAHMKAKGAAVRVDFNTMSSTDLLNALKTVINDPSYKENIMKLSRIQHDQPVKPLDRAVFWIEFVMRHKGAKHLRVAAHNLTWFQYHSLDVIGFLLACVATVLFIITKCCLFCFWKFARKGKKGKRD
UniProt P22310, 29-534: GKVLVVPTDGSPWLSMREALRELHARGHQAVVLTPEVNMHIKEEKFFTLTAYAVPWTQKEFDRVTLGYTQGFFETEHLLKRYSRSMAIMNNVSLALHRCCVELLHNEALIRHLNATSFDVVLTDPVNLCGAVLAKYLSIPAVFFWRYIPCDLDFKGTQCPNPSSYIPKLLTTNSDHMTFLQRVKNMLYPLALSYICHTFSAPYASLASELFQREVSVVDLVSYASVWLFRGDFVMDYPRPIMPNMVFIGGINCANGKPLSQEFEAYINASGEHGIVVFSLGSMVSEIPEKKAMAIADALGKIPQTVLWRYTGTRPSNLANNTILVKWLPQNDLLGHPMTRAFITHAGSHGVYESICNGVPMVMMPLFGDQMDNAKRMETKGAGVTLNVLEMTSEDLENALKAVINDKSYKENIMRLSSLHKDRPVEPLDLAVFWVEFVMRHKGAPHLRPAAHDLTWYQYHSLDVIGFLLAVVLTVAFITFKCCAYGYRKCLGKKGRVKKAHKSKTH

Assays:
[1] = molecular target: UGT2B10 67Asp (wild-type) (Homo sapiens, UniProt P36537); assay: in vitro; conditions: human, pH 7.5, KM, OLZ-4′-N-glucuronide formation; UGT2B10^67Asp
[2] = molecular target: UGT1A4 24Pro/48Leu (wild-type) (Homo sapiens, UniProt P22310); assay: in vitro; conditions: human, pH 7.5, KM, OLZ-4′-N-glucuronide formation; UGT1A4^24Pro/48Leu

Cc1cc2c(s1)Nc1ccccc1N=C2N1CCN(C)CC1 [OLZ, Olanzapine]
Km at 2 h [1]: 457 ± 11 µM | Km at 2 h [2]: 810 ± 135 µM
